Experimental data as given in publication PMC7078208, “Interaction of SHP-2 SH2 domains with PD-1 ITSM induces PD-1 dimerization and SHP-2 activation” (Communications Biology, 2020).

Test system: PD-1-SmBiT: PD-1-LgBiT complex (PD-1: PD-1 interaction) in HEK-293 cells
Test: NanoBiT assay for PD-1 dimerization in HEK-293 cells
Assay type: cell-based, human
Conditions: HEK-293, PD1SmBiT, PD1LgBiT, SHP-2 WT, kinase active Fyn; Fig. 4d
Method: For experiments with HEK-293 cells, one day before transfection, HEK-293 were plated as 20,000 cells in 0.1 ml DMEM complete medium per well, in six replicates per condition, on a white 96-well tissue culture plate. The following day cells were transfected by Fugene HD (Promega Corporation, Madison, WI) according to the manufacturer’s instructions. A total amount of 100 ng of cDNA was transfected, which included equal amounts (25 ng) of each plasmid for conditions in which four different cDNAs were used. When <4 plasmids were used, the total amount of transfected cDNA was made 100 ng by addition of empty vector. Thirty-hours after transfection, 25 µl of 1X Nano-Glo Live-Cell Assay Substrate (Promega) was added per well and luminescence was read immediately on a SpectraMax M3 plate reader (Molecular Devices). Where indicated, the allosteric SHP-2 inhibitor SHP099 (Medchem Express) was added in the cultures in increasing concentrations; vehicle (DMSO) was used as control. For experiments with primary human T cells a total amount of 2 µg of cDNA was transiently co-transfected using the Nucleofector system as described in the Cell Transfection section. […] Cells were co-cultured with Raji-PD-L1 with or without loaded SEE and complex formation between PD-1-SmBiT and PD-1-LgBiT was assessed 6 h later by luciferase assay.

hPDL1-monomer: monomeric recombinant human PD-L1
effect of PD-1 ligation on PD-1 dimerization: not
